Experiments:
[1] = target: Acetylcholinesterase (Electrophorus electricus) (UniProt O42275); assay: Inhibition of electric eel AChE using ACh as substrate at 0.1 mM measured for 30 mins by 1H NMR analysis relative to control
[2] = target: Acetylcholinesterase (Electrophorus electricus) (UniProt O42275); assay: Reactivation of paraoxon-inhibited electric eel AChE using ACh as substrate measured for 85 mins by 1H NMR analysis relative to control; set-up: scale not given: the % may be the effect or the level left
[3] = target: Acetylcholinesterase (Electrophorus electricus) (UniProt O42275); assay: Reactivation of paraoxon-inhibited electric eel AChE using ACh as substrate measured for 375 mins by 1H NMR analysis relative to control; set-up: scale not given: the % may be the effect or the level left
[4] = target: Acetylcholinesterase (Homo sapiens) (UniProt P22303); assay: Reactivation of paraoxon-inhibited human AChE using acetylthiocholine iodide as substrate at 25 mmol/L preincubated for 30 mins followed by substrate addition by Ellman method relative to control; set-up: scale not given: the % may be the effect or the level left

By UniProt entry, the sequences of proteins in these tests, tags left out. Where a name states a change or a piece, a line headed by the entry shows the natural chain unless it says otherwise.
UniProt O42275: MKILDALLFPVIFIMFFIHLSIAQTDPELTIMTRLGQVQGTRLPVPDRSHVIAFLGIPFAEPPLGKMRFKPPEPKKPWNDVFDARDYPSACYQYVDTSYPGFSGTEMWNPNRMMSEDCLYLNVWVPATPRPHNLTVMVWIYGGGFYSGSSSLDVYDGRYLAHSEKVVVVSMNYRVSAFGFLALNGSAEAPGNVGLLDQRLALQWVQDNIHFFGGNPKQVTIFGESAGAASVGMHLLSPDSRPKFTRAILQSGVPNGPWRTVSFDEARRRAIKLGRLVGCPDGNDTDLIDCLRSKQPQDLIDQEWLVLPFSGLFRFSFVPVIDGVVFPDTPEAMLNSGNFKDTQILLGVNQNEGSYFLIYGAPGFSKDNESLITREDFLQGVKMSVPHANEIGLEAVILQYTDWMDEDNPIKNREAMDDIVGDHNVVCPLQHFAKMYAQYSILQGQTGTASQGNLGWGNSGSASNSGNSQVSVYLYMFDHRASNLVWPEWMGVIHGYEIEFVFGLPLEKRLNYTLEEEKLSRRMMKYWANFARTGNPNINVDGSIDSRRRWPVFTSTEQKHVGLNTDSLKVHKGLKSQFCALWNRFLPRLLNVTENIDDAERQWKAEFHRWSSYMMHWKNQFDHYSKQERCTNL
UniProt P22303: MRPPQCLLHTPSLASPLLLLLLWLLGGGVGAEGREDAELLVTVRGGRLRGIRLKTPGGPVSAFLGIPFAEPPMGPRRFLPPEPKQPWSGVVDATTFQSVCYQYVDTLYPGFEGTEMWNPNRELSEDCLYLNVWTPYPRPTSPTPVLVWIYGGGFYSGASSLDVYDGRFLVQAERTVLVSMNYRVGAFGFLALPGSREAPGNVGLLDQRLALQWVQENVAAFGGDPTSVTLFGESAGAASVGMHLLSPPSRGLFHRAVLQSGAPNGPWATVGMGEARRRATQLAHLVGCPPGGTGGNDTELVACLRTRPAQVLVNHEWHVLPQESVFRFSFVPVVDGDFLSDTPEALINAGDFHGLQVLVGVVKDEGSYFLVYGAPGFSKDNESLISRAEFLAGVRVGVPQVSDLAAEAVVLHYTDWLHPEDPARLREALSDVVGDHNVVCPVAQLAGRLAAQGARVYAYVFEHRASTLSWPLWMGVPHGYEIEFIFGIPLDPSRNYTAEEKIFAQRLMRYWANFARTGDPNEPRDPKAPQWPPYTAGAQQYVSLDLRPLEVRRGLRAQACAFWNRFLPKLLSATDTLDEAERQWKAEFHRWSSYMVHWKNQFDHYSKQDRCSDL

Row | SMILES | inhibition [1] [%] | Activity [2] [%] | Activity [3] [%] | Activity [4] [%]
1 | O/N=C/c1ccc(Cl)cc1 | 22 | 4.42 | – | –
2 | COc1ccc(/C=N/O)cc1 | 4 | 7.6 | – | –
3 | O/N=C/c1ccc(F)cc1 | 1 | 4.04 | – | –
4 | C[n+]1ccccc1C=NO | 34 | – | – | –
5 | O/N=C/c1cccs1 | 61 | 8.02 | 58.6 | 93
6 | O=[N+]([O-])c1ccc(/C=N/O)cc1 | 0 | 6.61 | – | –
7 | O/N=C/c1ccccc1 | 37 | 10 | 15.5 | –
